Holding throughout (format): biochemical
Experiment [1] deals with recombinant PI3K (p110δ/p85α) (Homo sapiens, UniProt O00329). Kind of experiment: PI3Kδ ADP-Glo kinase assay. As to conditions: read-out: PI3Kδ Enzyme activity IC50. Background: In ADP-Glo the light output rises with the ADP produced.
Experiment [2] addresses recombinant PI3K (p110α/p85α) (Homo sapiens, UniProt P42336). Kind of experiment: PI3Kα ADP-Glo kinase assay. As to conditions: read-out: PI3Kα Enzyme activity IC50.
In experiment [3] the target is PI3K (p110γ) (Homo sapiens, UniProt P48736). As to the kind of experiment: PI3Kγ ADP-Glo kinase assay. Particulars: read-out: PI3Kγ Enzyme activity IC50.
Experiment [4] deals with PI3K (p110β/p85α) (Homo sapiens, UniProt P42338). Kind of experiment: PI3Kβ ADP-Glo kinase assay. As to conditions: read-out: PI3Kβ Enzyme activity IC50.

Amino acid sequences for entries named in this document (tags omitted). A change or cut given only in a name is not applied to a line headed by its entry.
UniProt O00329, whole entry: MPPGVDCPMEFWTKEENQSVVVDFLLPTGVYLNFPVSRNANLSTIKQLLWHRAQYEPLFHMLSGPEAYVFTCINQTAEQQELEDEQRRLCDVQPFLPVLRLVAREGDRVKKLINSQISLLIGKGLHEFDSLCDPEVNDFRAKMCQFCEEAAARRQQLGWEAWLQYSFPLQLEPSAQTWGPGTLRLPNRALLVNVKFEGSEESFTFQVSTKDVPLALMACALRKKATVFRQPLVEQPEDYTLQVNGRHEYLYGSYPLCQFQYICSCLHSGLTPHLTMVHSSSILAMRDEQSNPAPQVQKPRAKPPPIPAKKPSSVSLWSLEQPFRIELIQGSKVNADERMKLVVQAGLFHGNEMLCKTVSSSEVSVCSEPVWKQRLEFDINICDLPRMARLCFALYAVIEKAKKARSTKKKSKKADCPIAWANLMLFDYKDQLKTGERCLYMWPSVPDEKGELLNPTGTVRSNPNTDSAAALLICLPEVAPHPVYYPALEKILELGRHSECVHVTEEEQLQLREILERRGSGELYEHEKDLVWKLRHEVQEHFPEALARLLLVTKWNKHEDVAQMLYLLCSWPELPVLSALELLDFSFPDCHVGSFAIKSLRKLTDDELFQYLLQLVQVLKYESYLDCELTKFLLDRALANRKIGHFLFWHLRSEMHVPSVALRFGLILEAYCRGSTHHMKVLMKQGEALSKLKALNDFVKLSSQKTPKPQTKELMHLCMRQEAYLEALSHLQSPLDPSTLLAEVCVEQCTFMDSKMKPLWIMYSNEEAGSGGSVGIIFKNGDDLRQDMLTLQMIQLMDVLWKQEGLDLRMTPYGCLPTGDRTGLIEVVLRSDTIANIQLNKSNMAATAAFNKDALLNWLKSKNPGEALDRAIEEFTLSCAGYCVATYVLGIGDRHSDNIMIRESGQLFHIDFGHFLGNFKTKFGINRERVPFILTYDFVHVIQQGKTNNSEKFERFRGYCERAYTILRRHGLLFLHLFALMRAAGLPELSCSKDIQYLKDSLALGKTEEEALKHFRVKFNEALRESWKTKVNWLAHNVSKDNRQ
UniProt P42336, whole entry: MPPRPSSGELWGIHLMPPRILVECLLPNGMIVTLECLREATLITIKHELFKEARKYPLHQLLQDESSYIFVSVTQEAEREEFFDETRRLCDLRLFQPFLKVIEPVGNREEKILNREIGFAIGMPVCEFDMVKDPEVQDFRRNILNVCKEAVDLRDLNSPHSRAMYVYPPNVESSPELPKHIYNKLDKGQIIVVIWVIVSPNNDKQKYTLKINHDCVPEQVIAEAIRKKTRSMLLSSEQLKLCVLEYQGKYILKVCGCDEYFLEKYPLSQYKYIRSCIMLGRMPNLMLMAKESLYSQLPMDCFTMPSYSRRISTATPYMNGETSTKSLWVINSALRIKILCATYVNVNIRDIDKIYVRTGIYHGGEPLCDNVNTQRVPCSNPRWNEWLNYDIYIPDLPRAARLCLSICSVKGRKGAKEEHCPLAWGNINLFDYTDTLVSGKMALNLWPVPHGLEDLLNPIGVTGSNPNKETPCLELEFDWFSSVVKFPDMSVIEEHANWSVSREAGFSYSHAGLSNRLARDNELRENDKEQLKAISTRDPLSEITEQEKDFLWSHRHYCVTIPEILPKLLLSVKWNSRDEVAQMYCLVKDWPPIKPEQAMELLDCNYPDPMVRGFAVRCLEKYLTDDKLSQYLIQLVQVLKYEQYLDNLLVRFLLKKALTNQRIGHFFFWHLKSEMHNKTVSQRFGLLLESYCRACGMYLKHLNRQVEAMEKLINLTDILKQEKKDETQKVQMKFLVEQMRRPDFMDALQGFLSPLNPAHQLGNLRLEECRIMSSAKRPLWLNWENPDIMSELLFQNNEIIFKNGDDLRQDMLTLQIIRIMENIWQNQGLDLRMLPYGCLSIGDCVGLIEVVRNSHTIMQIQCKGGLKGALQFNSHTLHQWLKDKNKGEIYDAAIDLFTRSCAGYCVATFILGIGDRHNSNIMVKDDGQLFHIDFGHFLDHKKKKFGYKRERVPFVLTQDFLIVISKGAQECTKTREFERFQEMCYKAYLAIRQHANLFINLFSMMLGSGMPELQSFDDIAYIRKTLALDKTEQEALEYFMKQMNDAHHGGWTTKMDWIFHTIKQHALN
UniProt P48736, whole entry: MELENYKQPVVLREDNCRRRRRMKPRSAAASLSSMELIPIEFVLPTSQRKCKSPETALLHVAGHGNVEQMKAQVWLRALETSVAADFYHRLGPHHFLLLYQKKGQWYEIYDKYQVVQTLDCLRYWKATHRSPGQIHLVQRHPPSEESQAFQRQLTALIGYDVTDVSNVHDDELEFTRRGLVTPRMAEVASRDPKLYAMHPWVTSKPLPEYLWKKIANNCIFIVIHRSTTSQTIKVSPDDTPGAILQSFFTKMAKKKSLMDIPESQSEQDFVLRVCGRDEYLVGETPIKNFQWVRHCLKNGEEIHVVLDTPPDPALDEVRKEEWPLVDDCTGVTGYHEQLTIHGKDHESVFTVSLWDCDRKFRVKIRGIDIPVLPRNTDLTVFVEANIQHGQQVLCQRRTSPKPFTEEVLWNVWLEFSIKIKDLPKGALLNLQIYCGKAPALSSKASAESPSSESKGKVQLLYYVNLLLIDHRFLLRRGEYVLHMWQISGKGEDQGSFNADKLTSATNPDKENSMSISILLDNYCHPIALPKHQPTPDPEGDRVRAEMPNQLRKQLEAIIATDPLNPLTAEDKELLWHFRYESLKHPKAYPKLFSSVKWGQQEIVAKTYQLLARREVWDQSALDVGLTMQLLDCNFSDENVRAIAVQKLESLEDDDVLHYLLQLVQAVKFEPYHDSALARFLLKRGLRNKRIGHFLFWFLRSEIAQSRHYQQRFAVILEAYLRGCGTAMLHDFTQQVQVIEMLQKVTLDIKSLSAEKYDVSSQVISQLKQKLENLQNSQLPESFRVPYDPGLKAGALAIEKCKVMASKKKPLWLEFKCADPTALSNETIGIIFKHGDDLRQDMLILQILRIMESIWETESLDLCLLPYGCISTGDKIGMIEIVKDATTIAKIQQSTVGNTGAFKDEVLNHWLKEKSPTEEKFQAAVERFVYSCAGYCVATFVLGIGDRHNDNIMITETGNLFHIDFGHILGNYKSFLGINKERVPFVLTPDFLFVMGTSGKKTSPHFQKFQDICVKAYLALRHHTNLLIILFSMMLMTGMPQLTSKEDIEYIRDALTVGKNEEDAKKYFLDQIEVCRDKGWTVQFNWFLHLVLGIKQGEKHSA
UniProt P42338, whole entry: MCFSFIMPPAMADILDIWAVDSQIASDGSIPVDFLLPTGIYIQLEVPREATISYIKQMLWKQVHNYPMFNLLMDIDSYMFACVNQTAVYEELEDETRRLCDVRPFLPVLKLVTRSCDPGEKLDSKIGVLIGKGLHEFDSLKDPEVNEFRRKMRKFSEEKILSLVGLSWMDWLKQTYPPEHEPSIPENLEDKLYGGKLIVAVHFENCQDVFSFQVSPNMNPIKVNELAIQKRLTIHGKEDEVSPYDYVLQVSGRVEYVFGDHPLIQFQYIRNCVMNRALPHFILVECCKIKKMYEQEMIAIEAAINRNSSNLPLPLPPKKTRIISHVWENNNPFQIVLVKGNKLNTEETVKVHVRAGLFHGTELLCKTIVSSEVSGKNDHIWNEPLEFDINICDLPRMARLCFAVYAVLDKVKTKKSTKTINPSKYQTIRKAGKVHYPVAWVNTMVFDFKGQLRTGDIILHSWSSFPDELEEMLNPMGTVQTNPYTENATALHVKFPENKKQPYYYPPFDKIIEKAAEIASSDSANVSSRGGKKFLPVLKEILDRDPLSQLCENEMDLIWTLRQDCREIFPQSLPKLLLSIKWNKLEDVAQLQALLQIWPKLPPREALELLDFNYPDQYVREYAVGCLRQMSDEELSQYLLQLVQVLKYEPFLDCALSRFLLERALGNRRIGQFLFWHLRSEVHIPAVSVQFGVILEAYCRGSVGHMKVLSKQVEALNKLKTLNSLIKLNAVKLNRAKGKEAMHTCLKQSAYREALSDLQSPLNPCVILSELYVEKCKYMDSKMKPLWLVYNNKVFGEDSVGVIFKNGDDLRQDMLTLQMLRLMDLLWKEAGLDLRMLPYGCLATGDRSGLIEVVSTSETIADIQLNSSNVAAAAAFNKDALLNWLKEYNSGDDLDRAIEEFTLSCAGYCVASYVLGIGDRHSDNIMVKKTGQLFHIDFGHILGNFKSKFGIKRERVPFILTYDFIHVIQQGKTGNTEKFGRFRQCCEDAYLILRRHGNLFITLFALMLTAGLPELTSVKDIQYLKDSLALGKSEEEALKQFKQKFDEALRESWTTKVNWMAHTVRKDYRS
UniProt P27986, whole entry partner: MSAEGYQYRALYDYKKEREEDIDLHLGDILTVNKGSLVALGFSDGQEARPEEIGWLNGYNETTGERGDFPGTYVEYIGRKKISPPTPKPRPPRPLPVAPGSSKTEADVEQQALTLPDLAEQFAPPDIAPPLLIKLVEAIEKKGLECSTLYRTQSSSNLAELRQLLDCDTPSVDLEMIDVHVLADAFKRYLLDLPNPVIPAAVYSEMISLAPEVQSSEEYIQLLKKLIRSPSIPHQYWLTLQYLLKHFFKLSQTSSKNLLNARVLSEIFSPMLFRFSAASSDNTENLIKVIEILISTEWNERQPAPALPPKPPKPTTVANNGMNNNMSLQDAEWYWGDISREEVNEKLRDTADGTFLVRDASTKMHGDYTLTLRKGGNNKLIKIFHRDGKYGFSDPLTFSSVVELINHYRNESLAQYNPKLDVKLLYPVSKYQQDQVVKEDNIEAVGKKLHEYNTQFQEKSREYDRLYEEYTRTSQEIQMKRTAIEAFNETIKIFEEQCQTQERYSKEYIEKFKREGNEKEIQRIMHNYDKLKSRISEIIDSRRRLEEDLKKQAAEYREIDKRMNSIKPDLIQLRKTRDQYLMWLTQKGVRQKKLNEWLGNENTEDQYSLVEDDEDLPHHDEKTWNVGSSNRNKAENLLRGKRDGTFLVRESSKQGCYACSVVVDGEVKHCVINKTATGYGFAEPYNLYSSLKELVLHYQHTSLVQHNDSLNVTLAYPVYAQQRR

In general, IC50 refers to the concentration at which inhibition is half-maximal. With `CCOc1c([C@@H](C)c2nc(Br)c3c(N)nccn23)cc(Cl)c(C)c1-c1ccc(C)nc1`, the IC50 in experiment [1] came to 43 nM.

For the compound `CCOc1c([C@H](C)c2nc(Br)c3c(N)nccn23)cc(Cl)c(C)c1-c1ccc(C)nc1`, the IC50 was 1.3 nM in experiment [1], 580 nM in experiment [2], 210 nM in experiment [3] and 180 nM in experiment [4].

With `COc1c([C@H](C)c2nc(Br)c3c(N)nccn23)cc(Cl)c(C)c1-c1cccnc1`, the IC50 in experiment [1] was 0.59 nM; in experiment [2], 360 nM; in experiment [3] it was 150 nM.

For the compound `COc1c([C@@H](C)c2nc(Br)c3c(N)nccn23)cc(Cl)c(C)c1-c1cccnc1`, the IC50 in experiment [1] came to 1600 nM.

Take `CC(C)Oc1c(C(C)c2nc(Cl)c3c(N)nccn23)cc(Cl)c(F)c1-c1ccc(=O)[nH]c1` (stereo not shown): the IC50 is 0.2 nM in experiment [1], 810 nM in experiment [2], 170 nM in experiment [3] and 190 nM in experiment [4].

These data come from patent US11725012B2, “Imidazo[1,5-a]pyrazine derivatives as PI3K δ inhibitors” (priority 2016, dated 2023).
